Results reported in patent US6403602B1 (priority 1997, dated 2002).

Amino acid sequences for entries named in this document (tags omitted). A change or cut given only in a name is not applied to a line headed by its entry. Residues count along the entry.
UniProt A0A286XTF2, 1-366: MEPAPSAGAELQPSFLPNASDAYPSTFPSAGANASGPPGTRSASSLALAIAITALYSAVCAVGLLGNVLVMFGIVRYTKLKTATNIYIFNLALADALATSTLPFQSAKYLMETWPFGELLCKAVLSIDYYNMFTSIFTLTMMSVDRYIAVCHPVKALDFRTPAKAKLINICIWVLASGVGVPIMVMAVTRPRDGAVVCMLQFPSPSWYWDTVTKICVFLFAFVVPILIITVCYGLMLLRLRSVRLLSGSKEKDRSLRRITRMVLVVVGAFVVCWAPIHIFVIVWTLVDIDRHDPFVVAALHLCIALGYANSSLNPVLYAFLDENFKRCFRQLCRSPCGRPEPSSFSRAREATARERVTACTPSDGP
UniProt A0ACM8Q262, 1-400: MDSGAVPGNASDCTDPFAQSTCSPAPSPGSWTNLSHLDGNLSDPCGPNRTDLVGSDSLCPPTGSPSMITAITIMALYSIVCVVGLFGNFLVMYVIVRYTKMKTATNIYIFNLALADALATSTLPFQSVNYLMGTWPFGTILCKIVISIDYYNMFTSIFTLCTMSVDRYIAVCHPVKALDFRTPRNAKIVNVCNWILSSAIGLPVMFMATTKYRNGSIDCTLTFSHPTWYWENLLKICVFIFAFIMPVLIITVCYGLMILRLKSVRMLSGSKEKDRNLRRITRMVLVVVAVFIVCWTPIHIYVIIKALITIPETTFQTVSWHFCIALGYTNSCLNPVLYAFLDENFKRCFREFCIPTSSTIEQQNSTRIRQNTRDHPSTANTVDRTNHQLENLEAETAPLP
UniProt P41144: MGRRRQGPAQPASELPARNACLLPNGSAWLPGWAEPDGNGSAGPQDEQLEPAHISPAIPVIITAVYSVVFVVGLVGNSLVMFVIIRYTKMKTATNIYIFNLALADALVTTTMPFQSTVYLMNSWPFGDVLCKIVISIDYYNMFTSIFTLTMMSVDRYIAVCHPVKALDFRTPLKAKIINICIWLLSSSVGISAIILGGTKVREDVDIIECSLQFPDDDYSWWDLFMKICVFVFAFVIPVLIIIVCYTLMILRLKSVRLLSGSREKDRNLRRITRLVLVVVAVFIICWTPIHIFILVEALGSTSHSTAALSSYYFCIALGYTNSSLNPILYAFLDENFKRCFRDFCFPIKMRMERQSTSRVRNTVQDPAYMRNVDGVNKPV
UniProt P32300, whole entry: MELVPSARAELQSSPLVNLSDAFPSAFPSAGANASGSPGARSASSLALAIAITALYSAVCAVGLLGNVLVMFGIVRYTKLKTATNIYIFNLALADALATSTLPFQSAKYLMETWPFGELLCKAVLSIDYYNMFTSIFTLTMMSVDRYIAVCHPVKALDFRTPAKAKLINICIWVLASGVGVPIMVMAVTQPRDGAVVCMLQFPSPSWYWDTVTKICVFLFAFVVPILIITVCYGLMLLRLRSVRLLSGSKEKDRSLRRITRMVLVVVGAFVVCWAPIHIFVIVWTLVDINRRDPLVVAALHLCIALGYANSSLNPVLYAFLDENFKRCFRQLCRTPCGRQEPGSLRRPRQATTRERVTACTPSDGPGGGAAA

How the values were obtained:
delta receptors [1] = target: T1, delta receptors (Cavia porcellus, UniProt A0A286XTF2); assay type: binding, guinea pig
T1 construct: The brains were then homogenized in 50 mM Tris HCl, buffer pH 7.7, using a Polytron; from tissue; host or cells: guinea pig brain homogenate (membrane pellet)

mu opioid receptors = mu opioid receptors (Cavia porcellus, UniProt A0ACM8Q262); conditions: read-out: Ki μ [^3H]DAMGO
kappa1 sites = target: T2, kappa1 sites (Cavia porcellus, UniProt P41144); assay type: binding, guinea pig; conditions: read-out: Ki κ1 [^3H]U69,593
T2 construct: The brains were then homogenized in 50 mM Tris HCl, buffer pH 7.7, using a Polytron; from tissue; host or cells: guinea pig brain homogenate (membrane pellet)

kappa receptors = kappa receptors (Cavia porcellus, UniProt P41144)
delta receptors [2] = target: T3, delta receptors (Mus musculus, UniProt P32300); assay type: cell-based
T3 construct: The vas deferens from Swiss-Webster mice (30-35 g) were prepared as described by Hughes et al; from tissue; host or cells: mouse vas deferens (Swiss-Webster)

[3] = read-out: Ki δ, experiment done with [^3H]DPDPE

Question: (−) Pentazocine-succinate was tested. Which Ki (delta receptors [1]; [3]) did it give?
Answer: 32.7 nM

Question: For Dynorphin (1-13)-NH2, which Ki (mu opioid receptors) is on record?
Answer: 3.5 nM

Question: What about the Ki (kappa1 sites) of the same substance?
Answer: 0.3 nM

Question: And the Ki (delta receptors [1]; [3])?
Answer: 7.7 nM

Question: How did the Ki (delta receptors [1]; read-out: Ki δ [^3H]Cl-DPDPE) turn out when Dynorphin (1-17)-OH was run?
Answer: 5.8 nM

Question: Which results are given for Dynorphin (1-11)-OH?
Answer: Ki (mu opioid receptors): 2.3 nM; Ki (delta receptors [1]; [3]): 1.8 nM

Question: Which Ki (delta receptors [1]; read-out: Ki δ [^3H]Cl-DPDPE) does the source give for Dynorphin (1-13)-OH here?
Answer: 16.3 nM

Question: What does the source list for Dynorphin B?
Answer: DR with Nor-BNI (kappa receptors): 75.48; Ke of Nor-BNI (kappa receptors): 0.28; Ratio (after Ke of Nor-BNI) (kappa receptors): 0.161; DR with Naltrindole (delta receptors [2]): 2.10; Ke of Naltrindole (delta receptors [2]): 0.95; Ratio (after Ke of Naltrindole) (delta receptors [2]): 0.024; Ratio (after Ke of CTAP) (mu receptors): 0.056

Question: How did the Ki (delta receptors [1]; [3]) turn out when Dynorphin B-OH was run?
Answer: 4.2 nM

Question: Leu-Enkephalin was tested. Which Ki (delta receptors [1]; read-out: Ki δ [^3H]Cl-DPDPE) did it give?
Answer: 1.6 nM

Question: What does the source list for Dynorphin A (1-17)?
Answer: DR with Nor-BNI (kappa receptors): 102.20; Ke of Nor-BNI (kappa receptors): 0.20; Ratio (after Ke of Nor-BNI) (kappa receptors): 0.302; DR with Naltrindole (delta receptors [2]): 1.15; Ke of Naltrindole (delta receptors [2]): 7.32; Ratio (after Ke of Naltrindole) (delta receptors [2]): 0.003; Ratio (after Ke of CTAP) (mu receptors): 0.121

Question: Dynorphin(1-9)-OH was tested. Which “Guinea Pig Ileum DR with Nor-BNI” value (kappa receptors) did it give?
Answer: 75.48

Question: And the “Guinea Pig Ileum Ke of Nor-BNI” value (kappa receptors)?
Answer: 0.29

Question: And the “Mouse Vas Deferens Ratio (Naltrindole)” value (delta receptors [2])?
Answer: 0.082

Question: And the Ki (mu opioid receptors)?
Answer: 86.3 nM

Question: And the Ki (kappa1 sites)?
Answer: 1.4 nM

Question: What about the Ki (delta receptors [1]; [3]) of the same substance?
Answer: 1 nM

Question: With [D-Pen^3.5-enkephalin] [DPDPE-OH] as the substance, how does the Ki (mu opioid receptors) read?
Answer: > 10000 nM

Question: What about the Ki (delta receptors [1]; read-out: Ki δ [^3H]Cl-DPDPE) of the same substance?
Answer: 2.8 nM

Question: For Met-Enkephalin, which “Guinea Pig Ileum DR with Nor-BNI” value (kappa receptors) is on record?
Answer: 6.07

Question: And the “Guinea Pig Ileum Ke of Nor-BNI” value (kappa receptors)?
Answer: 3.95

Question: What about the Ki (delta receptors [1]; read-out: Ki δ [^3H]Cl-DPDPE) of the same substance?
Answer: 1.1 nM

Question: Dynorphin (1-8) was tested. Which Ki (mu opioid receptors) did it give?
Answer: 6.8 nM

Question: What about the Ki (kappa1 sites) of the same substance?
Answer: 65 nM

Question: What about the Ki (delta receptors [1]; [3]) of the same substance?
Answer: 1.5 nM

Question: (−) Cyclazocine was tested. Which “Guinea Pig Ileum DR with Nor-BNI” value (kappa receptors) did it give?
Answer: 33.39

Question: And the “Guinea Pig Ileum Ke of Nor-BNI” value (kappa receptors)?
Answer: 0.89 ± 0.69

Question: And the Ki (kappa1 sites)?
Answer: 0.1 nM

Question: What about the Ki (delta receptors [1]; [3]) of the same substance?
Answer: 0.6 nM

Like-named read-outs stand apart in the source and are kept apart here.
